Source: patent US7097988B1 (ADVANCED RESEARCH AND TECHNOLOGY INSTITUTE, dated 2006)

By UniProt entry, the sequences of proteins in these tests, tags left out. Where a name states a change or a piece, a line headed by the entry shows the natural chain unless it says otherwise.
UniProt P35372, whole entry: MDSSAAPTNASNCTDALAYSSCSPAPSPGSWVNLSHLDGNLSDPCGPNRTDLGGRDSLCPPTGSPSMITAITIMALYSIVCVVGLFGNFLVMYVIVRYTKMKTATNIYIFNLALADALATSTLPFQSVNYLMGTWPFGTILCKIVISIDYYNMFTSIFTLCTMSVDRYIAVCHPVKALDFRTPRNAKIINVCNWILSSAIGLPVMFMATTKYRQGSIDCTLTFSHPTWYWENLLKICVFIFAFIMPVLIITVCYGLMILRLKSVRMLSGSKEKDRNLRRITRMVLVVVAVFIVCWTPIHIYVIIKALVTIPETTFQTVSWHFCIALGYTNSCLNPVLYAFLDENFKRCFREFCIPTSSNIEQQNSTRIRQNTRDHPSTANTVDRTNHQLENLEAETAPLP
UniProt P35370: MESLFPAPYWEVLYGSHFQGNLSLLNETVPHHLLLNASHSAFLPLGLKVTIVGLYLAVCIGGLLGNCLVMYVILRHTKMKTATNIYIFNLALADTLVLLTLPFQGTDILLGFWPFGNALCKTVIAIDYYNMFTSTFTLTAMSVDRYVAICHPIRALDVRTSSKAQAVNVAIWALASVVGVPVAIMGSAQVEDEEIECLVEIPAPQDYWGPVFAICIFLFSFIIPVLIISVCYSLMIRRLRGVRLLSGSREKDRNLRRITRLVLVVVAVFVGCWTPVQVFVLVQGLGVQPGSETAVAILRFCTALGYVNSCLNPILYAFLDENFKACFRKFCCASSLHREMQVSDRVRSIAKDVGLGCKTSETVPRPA

Tests used:
[1] = molecular target: T1, cloned human μ opioid receptor (Homo sapiens, UniProt P35372); details: read-out: Binding potencies (Ki-nM), human μ receptor, [3H]DAMGO
T1 construct: the cDNA containing the open reading frame of the receptor was cloned downstream of the human cytomegalovirus promoter in the mammalian expression vector pcDNA3; expressed in transfected cells; host or cells: COS-7 (transient)

[2] = molecular target: T2, novel member of the opioid receptor gene family (SEQ ID NO: 17) (Rattus norvegicus, UniProt P35370); type: cell-based
T2 construct: mRNA of this clone was synthesized by in vitro transcription and coinjected into Xenopus oocytes; expressed in transfected cells; host or cells: Xenopus oocytes (mRNA injection)

Compound | Ki [1] [nM] | induction of potassium conductance (in words) [2]
CCC12CCN(CC3(O)CC3)C(Cc3ccc(O)cc31)C2(C)C (racemic) [(±)bremazocine] | 1.4 | 
CN1CC[C@]23c4c5ccc(O)c4O[C@H]2[C@@H](O)C=C[C@H]3[C@H]1C5 [Morphine] |  | no potassium conductance was induced
